Experimental findings from PubChem BioAssay AID678 (Vanderbilt High Throughput Screening Facility, 2007) are described below.

SMILES strings stand for the structures. The entries are a selection whose mix differs from that of the whole data set. Some tests of the compounds listed are not included; inactive here does not mean inactive elsewhere. Activity calls are given as the source filed them.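 The calls were made as follows: active = fluorescence response below the plate's average for near-maximal glutamate wells, less 3 SD of those wells; inactive = the rest.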

The assay addresses Metabotropic glutamate receptor 4 (Homo sapiens) (UniProt Q14833). The experiment in a line: human mGluR4 response to M1 antagonist hits, M1 allosteric modulator project, cell-based, antagonist mode, secondary assay 1 (AID 678).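 Also: raw unnormalized fluorescence span taken in the window right after glutamate addition.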 The conditions noted are these: CHO-mGluR4 calcium flux, Fluo-4 fluorescence, glutamate EC80; at 10 µM; stronger effect = lower value. A general note: Calcium assays in cells follow changes in intracellular calcium, usually with a dye or a luminescent sensor.
For the molecule `O=C(OC1CN2CCC1CC2)C(CO)(c1ccccc1)c1ccccc1` (stereo unspecified), the fluorescence response (max-min) was inactive: 204.
